Measured values published in patent US9034856B2, “17-(1′propenyl)-17-3′-oxidoestra-4-en-3-one derivative, use thereof, and medicament containing said derivative” (Bayer Intellectual Property GmbH, priority 2007, dated 2015).

The chains behind the UniProt entries cited, without tags or fusion partners.
UniProt P10275, whole entry, species assumed: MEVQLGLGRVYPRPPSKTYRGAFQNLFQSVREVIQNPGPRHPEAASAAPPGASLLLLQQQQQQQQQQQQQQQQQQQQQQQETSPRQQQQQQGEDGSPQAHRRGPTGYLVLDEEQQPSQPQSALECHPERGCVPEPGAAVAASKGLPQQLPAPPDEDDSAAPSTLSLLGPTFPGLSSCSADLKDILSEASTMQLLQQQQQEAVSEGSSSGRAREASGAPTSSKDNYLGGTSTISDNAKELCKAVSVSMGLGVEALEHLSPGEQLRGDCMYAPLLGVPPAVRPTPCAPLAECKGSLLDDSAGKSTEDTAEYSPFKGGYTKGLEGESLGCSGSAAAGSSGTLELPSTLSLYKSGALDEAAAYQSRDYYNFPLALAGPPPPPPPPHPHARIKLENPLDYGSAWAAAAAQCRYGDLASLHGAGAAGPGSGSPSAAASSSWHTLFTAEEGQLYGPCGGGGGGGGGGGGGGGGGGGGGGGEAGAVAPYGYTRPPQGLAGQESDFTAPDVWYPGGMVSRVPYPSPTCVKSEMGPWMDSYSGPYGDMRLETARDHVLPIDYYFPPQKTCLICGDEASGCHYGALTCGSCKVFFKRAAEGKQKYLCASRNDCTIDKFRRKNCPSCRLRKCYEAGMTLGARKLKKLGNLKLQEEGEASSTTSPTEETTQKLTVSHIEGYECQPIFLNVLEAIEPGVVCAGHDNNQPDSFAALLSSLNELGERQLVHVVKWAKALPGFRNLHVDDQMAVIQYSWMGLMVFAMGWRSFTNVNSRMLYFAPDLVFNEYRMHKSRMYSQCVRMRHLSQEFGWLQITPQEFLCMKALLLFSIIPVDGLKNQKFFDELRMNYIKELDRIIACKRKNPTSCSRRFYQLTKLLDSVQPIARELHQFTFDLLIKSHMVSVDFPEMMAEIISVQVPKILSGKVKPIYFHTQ
UniProt P06401, whole entry, species assumed: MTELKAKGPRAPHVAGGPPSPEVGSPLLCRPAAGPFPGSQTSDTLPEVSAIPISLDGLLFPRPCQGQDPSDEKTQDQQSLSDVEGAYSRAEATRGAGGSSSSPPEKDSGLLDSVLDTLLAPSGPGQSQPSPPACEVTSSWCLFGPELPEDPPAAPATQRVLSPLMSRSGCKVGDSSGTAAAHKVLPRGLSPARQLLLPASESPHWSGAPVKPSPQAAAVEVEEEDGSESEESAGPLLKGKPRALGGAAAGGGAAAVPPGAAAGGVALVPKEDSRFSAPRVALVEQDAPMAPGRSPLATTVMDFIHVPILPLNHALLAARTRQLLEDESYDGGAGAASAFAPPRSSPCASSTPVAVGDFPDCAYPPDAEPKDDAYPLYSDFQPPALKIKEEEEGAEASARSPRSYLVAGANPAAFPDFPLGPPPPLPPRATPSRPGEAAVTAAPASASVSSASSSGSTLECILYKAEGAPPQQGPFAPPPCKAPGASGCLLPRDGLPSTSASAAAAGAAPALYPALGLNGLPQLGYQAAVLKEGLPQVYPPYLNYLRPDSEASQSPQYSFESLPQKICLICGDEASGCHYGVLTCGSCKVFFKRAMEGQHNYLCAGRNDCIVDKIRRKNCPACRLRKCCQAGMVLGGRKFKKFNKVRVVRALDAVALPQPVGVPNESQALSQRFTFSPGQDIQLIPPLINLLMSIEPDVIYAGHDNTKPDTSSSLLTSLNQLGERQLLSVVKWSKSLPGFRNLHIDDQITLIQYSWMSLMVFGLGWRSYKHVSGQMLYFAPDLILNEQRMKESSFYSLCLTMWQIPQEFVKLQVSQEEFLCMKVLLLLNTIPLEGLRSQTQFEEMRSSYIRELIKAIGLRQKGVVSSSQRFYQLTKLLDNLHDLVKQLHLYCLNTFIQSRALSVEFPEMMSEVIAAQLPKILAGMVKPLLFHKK

What was measured:
androgen receptor [1] = biological target: T1, androgen receptor (Homo sapiens (Human), UniProt P10275); test: Androgenic/antiandrogenic action by transactivation test (PC3 reporter cells); assay type: cell-based; conditions: for IC50: 0.05 nM R1881, read-out: Androgen receptor Antagonism IC50; for EC50: read-out: Androgen receptor Agonism EC50
Procedure: 6. Determination of Androgenic/Antiandrogenic Action by Means of Transactivation Tests:
The androgenic/antiandrogenic action of the test substances was determined as for the transactivation tests described above.
The following modifications were made: In this case reporter cell lines were used (PC3 cells) that express the androgen receptor, and a reporter construct that contains luciferase under the control of a steroid hormone-responsive promoter.
For determination of the antiandrogenic efficacy, 0.05 nM R1881 was added to the cells, in order to achieve almost maximum stimulation of the reporter gene.

progesterone receptor = progesterone receptor (Homo sapiens (Human), UniProt P06401); test: Progesterone receptor binding test; conditions: ratio of competition factors CF(PR) and CF(MR)
Procedure: 1. Progesterone Receptor Binding Test:
Using cytosol from progesterone receptor-expressing insect cells (Hi5), competitive binding to the progesterone receptor was determined from the ability to displace ^3H-progesterone as reference substance from the receptor.

androgen receptor [2] = biological target: T1, androgen receptor; test: Androgen receptor binding test; conditions: reference 3H-testosterone, Hi5 cytosol; for IC50: read-out: Androgen receptor IC50

Row | SMILES | IC50 (androgen receptor [1]) [µM] | EC50 (androgen receptor [1]) [µM] | CF PR/CF MR (progesterone receptor) | IC50 (androgen receptor [2]) [µM] | Androgen receptor Competition factor (androgen receptor [2])
1 | CC[C@]12CC[C@H]3[C@@H](C=CC4=CC(=O)CC[C@@H]43)[C@@H]1CC[C@@]21C=CCO1 (stereo in doubt) [Example 8, 18-Methyl-17α-(1′-propenyl)-17β-3′-oxidoestra-4,6-dien-3-one] | 1 | 0.055 | 1.48 | 1.2 | 47.9
2 | C[C@]12CC[C@H]3[C@@H](CCC4=CC(=O)CC[C@@H]43)[C@@H]1CC1(CC1)[C@@]21C=CCO1 (stereo in doubt) [Example 6, 16,16-Ethylene-17α-(1′-propenyl)-17β-3′-oxidoestra-4-en-3-one] | 0.011 | 0.0067 | 0.15 | 0.14 | 15.7
3 | C[C@@H]1CC2=CC(=O)CC[C@@H]2[C@H]2CC[C@@]3(C)[C@@H](CC[C@@]34C=CCO4)[C@@H]21 [Example 3, 7α-Methyl-17α-(1′-propenyl)-17β-3′-oxidoestra-4-en-3-one] | 1 | 0.0023 | 0.75 | 0.045 | 2.0
4 | C[C@]12CC[C@H]3[C@@H](CCC4=CC(=O)CC[C@@H]43)[C@@H]1CC[C@@]21C=CCO1 (stereo in doubt) [Example 1, 17α-(1′-Propenyl)-17β-3′-oxidoestra-4-en-3-one] | 0.026 | 0.0048 | 0.18 | 0.027 | 3.3
5 | C[C@]12CC[C@H]3[C@@H](C=CC4=CC(=O)CC[C@@H]43)[C@@H]1CC[C@@]21C=CCO1 (stereo in doubt) [Example 2, 17α-(1′-Propenyl)-17β-3′-oxidoestra-4,6-dien-3-one] | 0.13 | 0.11 | 0.26 | 0.66 | 28.7
6 | CC[C@]12CC[C@H]3[C@@H]([C@H](C4CC4)CC4=CC(=O)CC[C@@H]43)[C@@H]1CC[C@@]21C=CCO1 [Example 12, 7α-Cyclopropyl-18-methyl-17α-(1′-propenyl)-17β-3′-oxidoestra-4-en-3-one] | 1 | 0.016 | 4.26 | 0.19 | 6.0
